Results taken from patent US20150268247A1, “Assay for Screening of Anti-Viral Compounds That Inhibit Specific Interaction Interfaces Between Cullin5 and an ElonginB/ElonginC/ CBF-beta/HIV-1 Vif Complex” (UNIVERSITY OF ROCHESTER, priority 2012, published 2015).

Experiments:
[1] = biological target: T1, SOCS2SOCS-box/EloB/C ternary complex (human SOCS2 SOCS-box residues 158-198 / ElonginB 1-118 / ElonginC 17-112) (human), O14508; test: fluorescence anisotropy, 5-FAM labelled peptide titrated with B/C/SOCS2 up to about 23 µM; anisotropy rises only from about 0.033 to about 0.041 [cont.) upper right panel]
[2] = biological target: T1, SOCS2SOCS-box/EloB/C ternary complex …; test: fluorescence anisotropy, SOCS2/B/C [(-) control] titrated into 25 nM 5-FAM peptide; Sd ± 1.8

Binder | Kd [1] [µM] | Kd [2] [µM]
LFSDVHAVCLWD (modifications not checked) [Cul5(43-54) peptide] | 15.6 | –
LFSDVHAVCLWDDKGPAKIHQAL (modifications not checked) [Cul5(43-65) peptide] | – | 7.3
